MC4R barr agon = human MC4R agonism via beta-arrestin | actives 0.98% (n = 360,000) | U2OS MC4R beta-arrestin complementation, luminescence; percent of melanotan II response, DMSO zero | P32245 | activation, % at 8.9 µM;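 active = activation above a per-plate cutoff, the mean activation of sample wells on that plate plus 3 SD, cut at about 8% in these data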
ALR inh = human ALR oxidase inhibition via reduced H2O2; P55789; purified ALR, DTT oxidation, H2O2 HRP-luminol luminescence; inhibition, % (concentration not given with the values); actives 3.8% (n = 290,000); AID 485317;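 active = mean and each replicate at 75% or more; inconclusive = only one of the two met; inactive = neither met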;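 note: stock transfer was 7.5 nL into about 7.5 µL; 0% = neutral wells and 100% = wells with inactivated enzyme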
NALP1 inh = NALP1 inhibition. inhibition, % at 10 µM. S. cerevisiae NALP1/ASC/caspase-1 growth, X-gal OD620, 72 h. AID 2071. actives 0.61% (n = 280,000); in the data active = inhibition mostly above about 24%, no sharp cut-off; inactive = mostly below about 32%
MC4R antag cAMP = human MC4R antagonism in cAMP assay | AID 540295 | P32245 | actives 0.48% (n = 360,000) | MC4R-expressing cells, MTII-stimulated cAMP, LANCE TR-FRET | inhibition, % at 6.5 µM;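 active = inhibition above its plate's cutoff, the mean of tested wells on that plate plus 3 SD, cut at about 29% in these data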
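Material – human MC4R-expressing U2OS cells · Repeats – no replicates · Detection – TR-FRET with Eu-cAMP and labeled anti-cAMP, 671 nm · Times – compound 30 min, challenge 1 h, detection 1 h · Compound – single nominal compound dose of 6.5 µM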
UUG fidelity = modulators of start codon recognition fidelity in yeast. S. cerevisiae UUG-firefly luciferase reporter, luminescence/redox ratio. activity score, % at 18.7 µM. 0.13% of 350,000 active. AID 602363;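 active = replicate mean at a twofold rise or more, about +100% in these data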;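 also: firefly luciferase made from a UUG start codon reports start codon fidelity; reporter light over untreated wells divided by growth signal over untreated wells; some hits fall short of that in this replicate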
HDAC3 inh = inhibitors of human histone deacetylase 3; actives 0.15% (n = 320,000); recombinant HDAC3, fluorogenic peptide/trypsin coupled, fluorescence; O15379; inhibition, % at 8.3 µM; in the data active = inhibition above about 26%, passing the limit was not always enough; inconclusive = no clear call, values can overlap the other calls
Large screens that a line does not name were inactive. Rows were chosen to be rich in hits. Some 4.2% of all compounds tested hit in one or more screens of this group.

C[C@@H]1CCCCO[C@@H](CN(C)S(=O)(=O)c2cn(C)cn2)[C@@H](C)CN([C@H](C)CO)C(=O)c2cc(NC(=O)c3ccccc3)ccc2O1	none (no result: MC4R barr agon, ALR inh, NALP1 inh, MC4R antag cAMP, HDAC3 inh)
CC(=O)N1CCN(S(=O)(=O)c2cccc(C(=O)Nc3ccccc3N3CCCC3)c2)CC1	ALR inh 97 (no result: NALP1 inh)
CC1CN(S(=O)(=O)c2cccc(C(=O)Nc3ccccc3N3CCCC3)c2)CC(C)O1 (stereo unspecified)	ALR inh 97 (no result: NALP1 inh)
CN1CCN(S(=O)(=O)c2cccc(C(=O)Nc3ccccc3N3CCCC3)c2)CC1	none
C[C@@H]1CN([C@@H](C)CO)C(=O)c2cccc(NC(=O)Nc3ccccc3)c2O[C@@H]1CN(C)C(=O)Nc1ccc(C(F)(F)F)cc1	none (no result: MC4R barr agon, ALR inh, NALP1 inh, MC4R antag cAMP, HDAC3 inh)
O=C(C[C@H]1CC[C@@H](NC(=O)C2CC2)[C@H](CO)O1)NC1CCC1	none (no result: MC4R barr agon, ALR inh, NALP1 inh, MC4R antag cAMP, HDAC3 inh)
CCc1cccc(NS(=O)(=O)c2ccc3c(c2)NC(=O)CC(=O)N3)c1	NALP1 inh 36 (no result: ALR inh)
Cc1sc(NC(=O)CN2CCCC2)nc1-c1ccc2c(c1)CCN2C(=O)c1cccc(F)c1	ALR inh inconclusive
Cc1sc(NC(=O)c2ccco2)nc1-c1ccc2c(c1)CC(C)N2C(=O)C1CC1 (stereo unspecified)	none (no result: UUG fidelity)
CC(=O)Nc1nc(-c2ccc3c(c2)CC(C)N3C(=O)C2CC2)c(C)s1 (stereo unspecified)	ALR inh 99
CCOC(=O)C(=O)Nc1nc(-c2ccc3c(c2)CCN3C(=O)C2CC2)c(C)s1	ALR inh 99
COc1ccc(NC(=O)Nc2ccc3c(c2)C(=O)N([C@H](C)CO)C[C@H](C)[C@H](CN(C)C(=O)CCC(F)(F)F)OCCCC[C@@H](C)O3)cc1	none (no result: MC4R barr agon, ALR inh, NALP1 inh, MC4R antag cAMP, HDAC3 inh)
Cc1noc(C)c1NC(=O)Nc1ccc2c(c1)C(=O)N([C@@H](C)CO)C[C@H](C)[C@H](CN(C)Cc1ccc3c(c1)OCO3)O2	none (no result: MC4R barr agon, ALR inh, NALP1 inh, MC4R antag cAMP, HDAC3 inh)
COC(=O)C(C)N1C(=O)S/C(=C\c2ccc(-c3ccc(C(=O)O)cc3C)o2)C1=O (stereo unspecified)	ALR inh 98
O=C(C[C@H]1CC[C@H]2NC[C@H](O)COC[C@@H]2O1)NC1Cc2ccccc2C1	none (no result: MC4R barr agon, ALR inh, NALP1 inh, MC4R antag cAMP, HDAC3 inh)
C[C@@H]1CCCCO[C@H](CN(C)CC2CCCCC2)[C@H](C)CN([C@H](C)CO)C(=O)c2cc(NC(=O)C3CCCCC3)ccc2O1	none (no result: MC4R barr agon, ALR inh, NALP1 inh, MC4R antag cAMP, HDAC3 inh)
COc1ccc(C(=O)N2CCN=C2SCc2cccnc2)cc1OC	ALR inh 100
COc1cccc(OC)c1C(=O)N1CCN=C1SCc1cccnc1	ALR inh 99
CN(C)C(=O)[C@@]1(Cc2ccccc2N=[N+]=[N-])N=C(c2ccc(OCCCO)cc2)O[C@H]1c1ccccc1N=[N+]=[N-]	none (no result: MC4R barr agon, ALR inh, NALP1 inh, MC4R antag cAMP, HDAC3 inh)
CCOC(=O)N1CCC(NC(=O)c2ccc3snnc3c2)CC1	ALR inh 98 (no result: HDAC3 inh)
CC(=O)Nc1ccc(C(=O)CSc2nc3ccccc3n2CC(=O)N2CCCC2)cc1	HDAC3 inh 67
Cc1cccc2sc(NC(=O)C3CC3)nc12	none
COC(=O)Nc1nc2c(C)cccc2s1	none
CSc1cccc(NC(=O)Nc2nc3c(C)cccc3s2)c1	MC4R barr agon 9.1
Cc1cccc2sc(NC(=O)c3ccc(Cl)s3)nc12	ALR inh 97
O=C(Oc1oc(-c2ccco2)nc1C=Nc1ccccc1)c1ccoc1	HDAC3 inh 90
O=C(Oc1oc(-c2ccco2)nc1C=Nc1ccccc1)c1ccco1	HDAC3 inh 90
Cc1ccc(N=Cc2nc(-c3ccco3)oc2O)cc1	none
Cc1ccc(C(=O)Oc2oc(-c3ccco3)nc2C=Nc2ccc(Cl)cc2)cc1	HDAC3 inh inconclusive (no result: UUG fidelity)
Cc1ccc2[nH]c(C)c(CCNC(=O)c3cc4cc([N+](=O)[O-])ccc4oc3=O)c2c1	none
Cc1ccc2[nH]c(C)c(CCNC(=O)c3c(N)no[n+]3[O-])c2c1	ALR inh 99 (no result: UUG fidelity)
COc1cccc(-c2ccc3c(c2)[C@@H]2[C@@H](CCN2S(=O)(=O)c2cccc(OC)c2)[C@H](CO)N3)c1	none (no result: MC4R barr agon, ALR inh, NALP1 inh, MC4R antag cAMP, HDAC3 inh)
Cc1ccc(S(=O)(=O)N2[C@@H](c3ccc(Cl)cc3)C(C(=O)O)=CC[C@H]2c2ccc(Cl)c(Cl)c2)cc1	ALR inh 88 (no result: NALP1 inh)
Cc1cc(C)c2[nH]c(=O)c(C(c3nnnn3C(C)(C)C)N(Cc3ccco3)CC3CCCO3)cc2c1 (stereo unspecified)	NALP1 inh 38
CC(=O)N1NC(=Nc2ccccc2)SC1(C)C	ALR inh 98 (no result: UUG fidelity)
O=C1NC(=Nc2ccccc2)SC1(CO)CO	none
COc1ccc(N(C(=O)CCl)C(C(=O)NCCc2ccccc2)c2cccs2)cc1 (stereo unspecified)	MC4R barr agon 12
C[C@H]1CN([C@@H](C)CO)C(=O)Cc2cc(NC(=O)Cc3ccccc3)ccc2O[C@H]1CN(C)Cc1ccc(Cl)c(Cl)c1	none (no result: MC4R barr agon, ALR inh, NALP1 inh, MC4R antag cAMP, HDAC3 inh)
CCc1ccc(Nc2nc(N)nc(CSc3nnnn3-c3ccccc3)n2)cc1	MC4R barr agon 8.5 (no result: ALR inh)
Cn1c(=O)c(Oc2cc(Cl)cc(Cl)c2)nc2ccccc21	ALR inh 98
COc1ccc(Oc2nc3ccccc3n(C)c2=O)cc1	none (no result: NALP1 inh)
O=[N+]([O-])/C(C(Cl)=C(Cl)Cl)=C(\Nc1ccc(F)cc1)n1cncn1	ALR inh 96 (no result: MC4R barr agon, MC4R antag cAMP, UUG fidelity)
COc1ccccc1OCc1ccc(C(=O)N2N=C(C(F)F)CC2(O)C(F)F)o1 (stereo unspecified)	HDAC3 inh inconclusive (no result: UUG fidelity)
O=C(c1ccc(COc2ccc(Cl)cc2)o1)N1N=C(C(F)F)CC1(O)C(F)F (stereo unspecified)	MC4R barr agon 8.7
O=C(Cc1ccncc1)NCC[C@H]1CC[C@H](NC(=O)Nc2ccc(Cl)cc2)[C@@H](CO)O1	none (no result: MC4R barr agon, ALR inh, NALP1 inh, MC4R antag cAMP, HDAC3 inh)
C=CCn1c(CCSCc2ccccc2)n[nH]c1=S	ALR inh 94 (no result: UUG fidelity)
COCCn1c(-c2cccc([N+](=O)[O-])c2)nc2c1c(=O)[nH]c(=O)n2Cc1ccccc1	ALR inh 99 (no result: UUG fidelity)
CCS(=O)(=O)Nc1ccc2c(c1)C(=O)N(C)C[C@H](OC)[C@H](C)CN(C)[C@@H](C)CO2	none (no result: MC4R barr agon, ALR inh, NALP1 inh, MC4R antag cAMP, HDAC3 inh)
CC1Oc2ccccc2C=C1/C=N/Nc1ccc(C(=O)O)cc1 (stereo unspecified)	ALR inh 92
C[C@H](CO)N1C[C@H](C)[C@@H](CN(C)S(=O)(=O)c2ccc(F)cc2)OCCCC[C@H](C)Oc2ccc(NS(=O)(=O)c3cn(C)cn3)cc2C1=O	none (no result: MC4R barr agon, ALR inh, NALP1 inh, MC4R antag cAMP, HDAC3 inh)
C[C@@H]1CN([C@@H](C)CO)S(=O)(=O)c2ccc(C#Cc3ccc(F)cc3)cc2O[C@H]1CN(C)C(=O)CN(C)C	none (no result: MC4R barr agon, ALR inh, NALP1 inh, MC4R antag cAMP, HDAC3 inh)
CC(C)C1C(C#N)=C(N)Oc2n[nH]c(-c3ccc4ccccc4c3)c21 (stereo unspecified)	MC4R barr agon 9.4
CC(C)C1C(C#N)=C(N)Oc2n[nH]c(-c3cccs3)c21 (stereo unspecified)	ALR inh 82
CCCc1[nH]nc2c1C(c1ccc(O)c(OC)c1)C(C#N)=C(N)O2 (stereo unspecified)	ALR inh 99 (no result: UUG fidelity)

Compound activity (PubChem)
